{
  "source": "paper PMC2375285",
  "about": "“Inhibition of all-TRANS-retinoic acid metabolism by R116010 induces antitumour activity” (British Journal of Cancer, 2002)",
  "biological_target": "T1, CYP26A1 (Homo sapiens, UniProt O43174)",
  "T1 construct": "microsomes of T47D human breast cancer cells that were pretreated for 16 h with 1 μM RA to induce RA metabolism; endogenous in cells; host or cells: T47D human breast cancer cells, pretreated with 1 μM RA for 16 h; microsomal fraction",
  "T1 sequence (O43174 1-497)": "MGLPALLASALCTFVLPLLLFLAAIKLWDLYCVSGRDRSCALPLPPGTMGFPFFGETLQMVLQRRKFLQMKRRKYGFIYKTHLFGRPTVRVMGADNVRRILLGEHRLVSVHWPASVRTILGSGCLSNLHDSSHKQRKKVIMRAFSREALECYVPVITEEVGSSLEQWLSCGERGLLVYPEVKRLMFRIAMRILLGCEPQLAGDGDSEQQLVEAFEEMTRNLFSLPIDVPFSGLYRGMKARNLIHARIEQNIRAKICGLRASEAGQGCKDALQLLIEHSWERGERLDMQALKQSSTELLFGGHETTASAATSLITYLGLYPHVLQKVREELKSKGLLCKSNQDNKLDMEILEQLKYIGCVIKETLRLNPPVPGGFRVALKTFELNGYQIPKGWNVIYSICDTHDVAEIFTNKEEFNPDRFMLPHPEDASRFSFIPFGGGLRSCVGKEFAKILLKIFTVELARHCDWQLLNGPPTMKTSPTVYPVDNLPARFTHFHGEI",
  "experiment": "RA 4-hydroxylase in T47D human breast cancer microsomes",
  "format": "biochemical",
  "data": [
    {"smiles": "Clc1cccc(C(c2ccc3[nH]cnc3c2)n2ccnc2)c1.Clc1cccc(C(c2ccc3[nH]cnc3c2)n2ccnc2)c1.O=C(O)/C=C/C(=O)O.O=C(O)/C=C/C(=O)O.O=C(O)/C=C/C(=O)O", "note": "(racemic) [liarozole-fumarate, ±-5-[(3-chlorophenyl)(1H-imidazole-1-yl)methyl]-1H-benzimidazole (E)-2-butenedioate (2:3), reference compound]", "values": [
      {"measurement": "IC50", "result": 500, "unit": "nM"}
    ]}
  ]
}
